According to ChEMBL document CHEMBL3758094, “Thioxocoumarins Show an Alternative Carbonic Anhydrase Inhibition Mechanism Compared to Coumarins” (J Med Chem, 2016):

Molecular target: Carbonic anhydrase 9 (Homo sapiens, UniProt Q16790)

- Ki: 19.6 µM
Compound: S=c1ccc2ccccc2s1
